Laboratory results published in patent US8962608B2, “Cycloalkylnitrile pyrazole carboxamides as janus kinase inhibitors” (Merck Sharp & Dohme Corp., priority 2011, dated 2015).

The chains behind the UniProt entries cited, without tags or fusion partners. Residues count along the entry.
UniProt P23458, 875-1153: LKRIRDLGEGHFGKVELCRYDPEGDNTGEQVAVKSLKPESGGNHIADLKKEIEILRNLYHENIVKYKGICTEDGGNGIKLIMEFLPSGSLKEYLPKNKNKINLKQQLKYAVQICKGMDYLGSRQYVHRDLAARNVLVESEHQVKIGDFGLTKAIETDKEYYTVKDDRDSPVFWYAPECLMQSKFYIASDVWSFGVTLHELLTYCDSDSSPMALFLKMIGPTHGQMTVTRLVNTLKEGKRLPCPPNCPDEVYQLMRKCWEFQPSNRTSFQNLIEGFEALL

Target: JAK1 (recombinant purified GST-tagged catalytic domain) (Homo sapiens (Human), UniProt P23458)
Assay: biochemical
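Also: biochemical assay with HTRF read-out.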

IC50 | SMILES
5 nM | N#C[C@H]1C[C@H](O)CCC1n1cc(C(N)=O)c(Nc2ccc(F)cc2)n1 (mixture of isomers) [Example 4, 1-[(1S,2S,4R and 1R,2R,4S)-2-Cyano-4-hydroxycyclohexyl]-3-[(4-fluorophenyl)amino]-1H-pyrazole-4-carboxamide]
0.35 nM | CN(C)[C@@H]1CC[C@H](n2cc(C(N)=O)c(Nc3ccc(C(F)(F)F)cc3)n2)[C@@H](C#N)C1 (single isomer, unassigned) [Example 28-189, 1-[(1S,2S,4R or 1R,2R,4S)-2-cyano-4-(dimethylamino)cyclohexyl]-3-{[4-(trifluoromethyl)phenyl]amino}-1H-pyrazole-4-carboxamide]
2 nM | N#C[C@@H]1CC(CO)CCC1n1cc(C(N)=O)c(Nc2ccc(F)cc2)n1 (mixture of isomers) [Example 8, 1-((1R,2R and 1S,2S)-2-Cyano-4-(hydroxymethyl)cyclohexyl)-3-((4-fluorophenyl)amino)-1H-pyrazole-4-carboxamide]
2 nM | CC(C)(c1ccc(Nc2nn([C@H]3CCCC[C@@H]3C#N)cc2C(N)=O)cc1F)[C@@H](O)C(F)(F)F (single isomer, unassigned) [Example 17-33, 1-[(1S,2S or 1R,2R)-2-cyanocyclohexyl]-3-({3-fluoro-4-[(2R or 2S)-3,3,3-trifluoro-2-hydroxy-1,1-dimethylpropyl]phenyl}amino)-1H-pyrazole-4-carboxamide]
1 nM | N#C[C@H]1C[C@@H](N2CC3(CCC3)C2)CC[C@@H]1n1cc(C(N)=O)c(Nc2ccccc2)n1 (single isomer, unassigned) [Example 28-136, 1-[(1S,2S,4S or 1R,2R,4R)-4-(2-azaspiro[3.3]hept-2-yl)-2-cyanocyclohexyl]-3-(phenylamino)-1H-pyrazole-4-carboxamide]
0.35 nM | CCS(=O)(=O)c1ccc(Nc2nn(C3CCCC[C@@H]3C#N)cc2C(N)=O)cc1 (mixture of isomers) [Example 17-10, 1-[(1S,2S and 1R,2R)-2-cyanocyclohexyl]-3-{[4-(ethylsulfonyl)phenyl]amino}-1H-pyrazole-4-carboxamide]
0.8 nM | CC(C)(C)OC(=O)NC1CC[C@H](C#N)C(n2cc(C(N)=O)c(Nc3ccc(F)cc3)n2)C1 (mixture of isomers) [Example 11-5, tert-butyl [(1R,3S,4S and 1S,3R,4R) or (1S,3S,4S and 1R,3R,4R)-3-{4-carbamoyl-3-[(4-fluorophenyl)amino]-1H-pyrazol-1-yl}-4-cyanocyclohexyl]carbamate]
1 nM | N#C[C@@H]1C[C@H](OCC2CC2)CC[C@H]1n1cc(C(N)=O)c(Nc2ccc([C@@H](O)C(F)(F)F)cc2)n1 (single isomer, unassigned) [Example 26-8, 1-[(1R,2R,4R or 1S,2S,4S)-2-cyano-4-(cyclopropylmethoxy)cyclohexyl]-3-({4-[(1R or 1S)-2,2,2-trifluoro-1-hydroxyethyl]phenyl}amino)-1H-pyrazole-4-carboxamide]
2 nM | N#C[C@H]1C[C@@H](NCCC(F)(F)F)CC[C@@H]1n1cc(C(N)=O)c(Nc2ccc(S(=O)(=O)C(F)(F)F)cc2)n1 (single isomer, unassigned) [Example 28-166, 1-{(1S,2S,4S or 1R,2R,4R)-2-cyano-4-[(3,3,3-trifluoro-propyl)amino]cyclohexyl}-3-({4-[(trifluoro-methyl)sulfonyl]phenyl}amino)-1H-pyrazole-4-carboxamide]
5 nM | C[C@H](N[C@H]1CC[C@H](n2cc(C(N)=O)c(Nc3ccc(C(F)(F)F)nc3)n2)[C@@H](C#N)C1)C1CC1 (single isomer, unassigned) [Example 28-8, 1-[(1S,2S,4S or 1R,2R,4R)-2-cyano-4-{[(1S)-1-cyclopropylethyl]amino}cyclo-hexyl]-3-{[6-(trifluoromethyl)pyridin-3-yl]amino}-1H-pyrazole-4-carboxamide]
